# Values quoted from earlier work as cited in article PMC3758386 (Psychopharmacology, 2013).
# Target: NET
# Conditions: read-out: Ki NET; ref Woolverton et al., Psychopharmacology (2001); cited from earlier work
smiles,measurement,value
"CN1C2CCC1CC(OC(c1ccc(Cl)cc1)c1ccc(Cl)cc1)C2 (stereo not drawn) [4,4-diCl-BZT, 4′-chloro-4″-chloro-3α-(diphenylmethoxy)tropane]",Ki,2.98 ± 0.182 µM
